Experimental findings from patent publication US12139488B2, “Pyrido[3,2-d]pyrimidine compounds uses thereof for treating a proliferative disease” (Universite de Montreal, priority 2021, dated 2024) are described below.

Protein sequences, listed by entry. Tags and fused reporters are not part of them.
UniProt P15056, whole entry: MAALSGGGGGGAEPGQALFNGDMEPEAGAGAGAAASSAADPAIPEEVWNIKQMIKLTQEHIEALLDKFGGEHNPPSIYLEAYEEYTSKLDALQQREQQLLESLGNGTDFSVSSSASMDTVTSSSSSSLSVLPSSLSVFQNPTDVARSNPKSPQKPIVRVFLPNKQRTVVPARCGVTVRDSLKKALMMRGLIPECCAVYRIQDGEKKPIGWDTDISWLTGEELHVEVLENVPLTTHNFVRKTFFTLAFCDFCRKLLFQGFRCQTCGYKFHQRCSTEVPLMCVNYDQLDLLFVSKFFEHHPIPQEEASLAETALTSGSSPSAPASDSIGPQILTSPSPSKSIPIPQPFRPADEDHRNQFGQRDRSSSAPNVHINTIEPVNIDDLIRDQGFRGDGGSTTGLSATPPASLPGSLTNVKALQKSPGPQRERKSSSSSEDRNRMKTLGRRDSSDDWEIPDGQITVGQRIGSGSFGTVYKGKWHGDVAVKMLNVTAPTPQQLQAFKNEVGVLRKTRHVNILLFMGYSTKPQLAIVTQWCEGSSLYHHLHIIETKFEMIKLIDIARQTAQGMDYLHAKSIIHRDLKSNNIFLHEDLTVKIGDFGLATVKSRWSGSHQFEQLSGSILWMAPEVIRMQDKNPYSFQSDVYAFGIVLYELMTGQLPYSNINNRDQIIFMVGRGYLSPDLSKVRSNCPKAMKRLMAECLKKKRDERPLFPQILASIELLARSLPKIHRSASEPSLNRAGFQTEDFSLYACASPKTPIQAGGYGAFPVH
UniProt P04049, whole entry: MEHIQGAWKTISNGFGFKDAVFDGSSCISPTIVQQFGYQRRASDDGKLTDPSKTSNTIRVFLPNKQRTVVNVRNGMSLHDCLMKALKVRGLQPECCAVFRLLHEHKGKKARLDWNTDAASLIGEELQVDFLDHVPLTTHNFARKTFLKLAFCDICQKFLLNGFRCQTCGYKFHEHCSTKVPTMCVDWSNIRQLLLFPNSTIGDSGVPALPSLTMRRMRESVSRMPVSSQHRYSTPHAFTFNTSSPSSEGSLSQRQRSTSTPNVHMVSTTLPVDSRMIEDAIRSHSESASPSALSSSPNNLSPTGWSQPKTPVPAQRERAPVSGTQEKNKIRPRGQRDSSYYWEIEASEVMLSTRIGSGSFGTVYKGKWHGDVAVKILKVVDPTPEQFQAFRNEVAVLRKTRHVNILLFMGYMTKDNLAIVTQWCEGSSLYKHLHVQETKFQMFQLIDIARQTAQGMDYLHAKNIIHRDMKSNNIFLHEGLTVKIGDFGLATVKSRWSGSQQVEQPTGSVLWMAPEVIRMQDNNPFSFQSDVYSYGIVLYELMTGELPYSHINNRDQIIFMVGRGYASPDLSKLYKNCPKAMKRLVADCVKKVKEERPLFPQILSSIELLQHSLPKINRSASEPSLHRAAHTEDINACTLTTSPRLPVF

Where two headings read alike, the source gives them in different places.

For assay [1], the system named is pERK in HCT-116 cells (KRAS G13D). In words: Phospho-ERK inhibition (AlphaLISA SureFire Ultra p-ERK 1/2), HCT116. The conditions noted are these: for HCT116 pERK % Ymin (lowest value of the IC50 curve) / IC50 / HCT116 pERK Ymin %: HCT116 cells; for HCT116 pERK % Ymin (lowest value of the IC50 curve): Ymin above −20% = minimal or no paradoxical activation; for IC50: read-out: HCT116 pERK IC50; for HCT116 pERK Ymin %: Ymin in brackets. In short, it runs like this: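 pERK1/2 (Thr202/Tyr204) AlphaLISA, 1 h cpd, 10 conc. 10 μM→0.33 nM, 0.5% DMSO, RPMI-1640 + 5% FBS. Trametinib = 100%, DMSO = 0%. IC50, 4-param fit.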
For orientation: In Alpha technology, singlet oxygen from a donor bead excites a nearby acceptor bead.

Assay [2] concerns the target BRAF (Homo sapiens (Human), UniProt P15056). In words: BRAF kinase activity assay (ADP-Glo). A general note: ADP-Glo first removes unused ATP, then detects ADP through luciferase.
In assay [3] the target is CRAF (Homo sapiens, UniProt P04049). In words: CRAF kinase activity assay (ADP-Glo).
[4] abbreviates: read-out: Kinase IC50 (nM), BRAF biochemical kinase assay, BRAF.
The mark [5] stands for this setting: read-out: Kinase IC50 (nM), CRAF biochemical kinase assay, CRAF.
The mark [6] stands for this setting: class symbol before the bracket.
Where [7] appears, read: read-out: Kinase IC50 (nM) BRAF.
Where [8] appears, read: read-out: Kinase IC50 (nM) CRAF.

On to `COC1CCN(c2cccc3c2ncn3-c2ccc3ncnc(Nc4c(F)ccc(NS(=O)(=O)c5cccc(F)c5C)c4F)c3n2)CC1`, for which, in assay [1], the “HCT116 pERK % Ymin (lowest value of the IC50 curve)” value (from here on “HCT116 pERK % Ymin”) is −3.6%. Besides, the IC50 in assay [1] is below 500 nM; in assay [2] (setting [4]), 1 to 10 nM; in assay [3] (setting [5]), 10 to 50 nM.
Taken in the same sequence, the figures for `COCCOCCOc1cccc2c1nnn2-c1ccc2ncnc(Nc3c(F)ccc(NS(=O)(=O)c4cccc(Cl)c4Cl)c3F)c2n1` were 2%, below 500 nM, below 1 nM and below 10 nM.
`Cc1c(F)cccc1S(=O)(=O)Nc1ccc(F)c(Nc2ncnc3ccc(-n4nc(C(=O)NCCCO)c5ccccc54)nc23)c1F`: in assay [1], the “HCT116 pERK Ymin %” value is reported as −9.4%. Besides, the IC50 was below 500 nM in assay [1] (setting [6]), 1 to 10 nM in assay [2] (setting [7]) and below 10 nM in assay [3] (setting [8]).
For `Cc1c(Cl)cccc1S(=O)(=O)Nc1ccc(F)c(Nc2ncnc3ccc(-n4cnc5c(N6CCC(C)(O)CC6)cccc54)nc23)c1F`, in assay [1], the “HCT116 pERK % Ymin” value is 2%. In addition, the IC50 in assay [1] was below 500 nM; in assay [2] (setting [4]), 1 to 10 nM; in assay [3] (setting [5]), 10 to 50 nM.
Consider `Cc1c(F)cccc1S(=O)(=O)Nc1ccc(F)c(Nc2ncnc3ccc(-n4nc(C(=O)N5CCO[C@@H](CO)C5)c5ccccc54)nc23)c1F`, for which the “HCT116 pERK Ymin %” value in assay [1] is 4.6%. Also, the IC50 is below 500 nM in assay [1] (setting [6]), below 1 nM in assay [2] (setting [7]) and 10 to 50 nM in assay [3] (setting [8]).
For `Nc1nnc(-c2nn(-c3ccc4ncnc(Nc5c(F)ccc(NS(=O)(=O)c6cccc(Cl)c6Cl)c5F)c4n3)c3ccccc23)o1` the same measures were −2%, 1000 to 10000 nM, below 1 nM and below 10 nM.
Taken in the same sequence, the figures for `Cc1c(F)cccc1S(=O)(=O)Nc1ccc(F)c(Nc2ncnc3ccc(-n4ncc5c(-c6cncnc6)cccc54)nc23)c1F` were −0.1%, below 500 nM, below 1 nM and below 10 nM.
With `O=S(=O)(Nc1ccc(F)c(Nc2ncnc3ccc(-n4cnc5c(N6CC(CCO)C6)cccc54)nc23)c1F)c1cccc(Cl)c1Cl`, the “HCT116 pERK % Ymin” value in assay [1] worked out at 10%. Also, the IC50 in assay [1] is below 500 nM; in assay [2] (setting [4]), 1 to 10 nM; in assay [3] (setting [5]), 10 to 50 nM.
Take `CC1COCC(C)N1c1cccc2c1nnn2-c1ccc2ncnc(Nc3c(F)ccc(NS(=O)(=O)c4cccc(Cl)c4Cl)c3F)c2n1` (centres unmarked): the “HCT116 pERK % Ymin” value in assay [1] was −14%. Further, the IC50 in assay [1] was 500 to 1000 nM; in assay [2] (setting [4]), above 10 nM; in assay [3] (setting [5]), above 50 nM.
Turning to `Cc1c(Cl)cccc1S(=O)(=O)Nc1ccc(F)c(Nc2ncnc3ccc(-n4nc(C(=O)N5CCN(CCO)CC5)c5ccccc54)nc23)c1F`, the “HCT116 pERK Ymin %” value in assay [1] was −5.5%. Moreover, the “YMIN of pERK IC50 dose response curve (paradoxical induction of pERK signaling)” value in assay [1] (RAS-mutant HCT116 cells, FIG. 1) is above −20%. In addition, the half-inhibitory concentration (IC50) in assay [1] (setting [6]) was below 500 nM; in assay [2] (setting [7]), below 1 nM; in assay [3] (setting [8]), below 10 nM.
Take `Cc1c(Cl)cccc1S(=O)(=O)Nc1ccc(F)c(Nc2ncnc3ccc(-n4nc(C(N)=O)cc4C)nc23)c1F`: the “HCT116 pERK Ymin %” value in assay [1] is −11%. Also, the IC50 in assay [1] (setting [6]) was in the range of 1000 to 10000 nM; in assay [2] (setting [7]) it was 1 to 10 nM; in assay [3] (setting [8]), 10 to 50 nM.
With `O=S(=O)(Nc1ccc(F)c(Nc2ncnc3ccc(-n4nnc5c(N6CC7CC6CO7)cccc54)nc23)c1F)c1cccc(Cl)c1Cl` (centres unmarked), the “HCT116 pERK % Ymin” value in assay [1] came out at 0%. Moreover, the values for the IC50 in assay [1], in assay [2] (setting [4]) and in assay [3] (setting [5]) were below 500 nM, 1 to 10 nM and 10 to 50 nM, respectively.
Taken in the same sequence, the figures for `O=S(=O)(Nc1ccc(F)c(Nc2ncnc3ccc(-n4cnc5c(N6CCC7(CCOC7)CC6)cccc54)nc23)c1F)c1cccc(Cl)c1Cl` were 11%, below 500 nM, 1 to 10 nM and 10 to 50 nM.
With `Cc1c(Cl)cccc1S(=O)(=O)Nc1ccc(F)c(Nc2ncnc3ccc(-n4nc(C(=O)N5C[C@@H](C)NC[C@@H]5C)c5ccccc54)nc23)c1F`, the “HCT116 pERK Ymin %” value in assay [1] (tested form: formic acid salt) is recorded as −7.4%. For the same compound, the half-maximal inhibitory concentration (IC50) in assay [1] (class symbol before the bracket, tested form: formic acid salt) was 500 to 1000 nM; in assay [2] (read-out: Kinase IC50 (nM) BRAF, tested form: formic acid salt) it was below 1 nM; in assay [3] (read-out: Kinase IC50 (nM) CRAF, tested form: formic acid salt), 10 to 50 nM.
Turning to `O=S(=O)(Nc1ccc(F)c(Nc2ncnc3ccc(-n4cnc5c(N6CCC(N7CCCC7)CC6)cccc54)nc23)c1F)c1cccc(Cl)c1Cl`, the “HCT116 pERK % Ymin” value in assay [1] is listed as 6%. The IC50 in assay [1] was below 500 nM; in assay [2] (setting [4]) it was below 1 nM; in assay [3] (setting [5]) it was 10 to 50 nM.
For `O=S(=O)(Nc1ccc(F)c(Nc2ncnc3ccc(-n4cnc5c(N6CC(CF)C6)cccc54)nc23)c1F)c1cccc(Cl)c1Cl` the same measures were −9%, below 500 nM, above 10 nM and 10 to 50 nM.
Take `Cc1c(F)cccc1S(=O)(=O)Nc1ccc(F)c(Nc2ncnc3ccc(-n4nc(C(=O)N5CCN(CCO)CC5)c5ccccc54)nc23)c1F`: in assay [1], the “HCT116 pERK Ymin %” value is −17.7%. The IC50 in assay [1] (setting [6]) is 500 to 1000 nM; in assay [2] (setting [7]), 1 to 10 nM; in assay [3] (setting [8]), above 50 nM.
In the case of `COc1ccc(S(=O)(=O)Nc2ccc(F)c(Nc3ncnc4ccc(-n5cnc6c(N7CCC(O)(C(F)(F)F)CC7)cccc65)nc34)c2F)c(C)c1F`, the “HCT116 pERK % Ymin” value in assay [1] is listed as −8%. The IC50 in assay [1] was below 500 nM; in assay [2] (setting [4]), above 10 nM; in assay [3] (setting [5]) it was 10 to 50 nM.
Take `Cc1c(Cl)cccc1S(=O)(=O)Nc1ccc(F)c(Nc2ncnc3ccc(-n4cnc(C(=O)N5CCOCC5)n4)nc23)c1F`: the “HCT116 pERK Ymin %” value in assay [1] was determined as 11%. Further, the IC50 in assay [1] (setting [6]) was 1000 to 10000 nM; in assay [2] (setting [7]), 1 to 10 nM; in assay [3] (setting [8]), above 50 nM.
Taken in the same sequence, the figures for `Cc1c(F)cccc1S(=O)(=O)Nc1ccc(F)c(Nc2ncnc3ccc(-n4nc(C(=O)N5CCC[C@H](O)C5)c5ccccc54)nc23)c1F` were −2.2%, below 500 nM, below 1 nM and 10 to 50 nM.
Taken in the same sequence, the figures for `Cc1c(Cl)cccc1S(=O)(=O)Nc1ccc(F)c(Nc2ncnc3ccc(-n4nc(C(=O)N5CC(O)C5)c5ccccc54)nc23)c1F` were −14%, below 500 nM, 1 to 10 nM and 10 to 50 nM.
For `Cc1c(F)cccc1S(=O)(=O)Nc1ccc(F)c(Nc2ncnc3ccc(-n4nc(C(=O)N5CCOCC5)c5ccccc54)nc23)c1F` the same measures were −8.5%, below 500 nM, below 1 nM and 10 to 50 nM.
Take `Cc1c(F)cccc1S(=O)(=O)Nc1ccc(F)c(Nc2ncnc3ccc(-n4nc(C(=O)NCc5cccnc5)c5ccccc54)nc23)c1F`: the “HCT116 pERK Ymin %” value in assay [1] is given as −21%. The IC50 in assay [1] (setting [6]) was below 500 nM; in assay [2] (setting [7]) it was 1 to 10 nM; in assay [3] (setting [8]), above 50 nM.
Consider `O=C1CCC2(CCN(c3cccc4c3ncn4-c3ccc4ncnc(Nc5c(F)ccc(NS(=O)(=O)c6cccc(Cl)c6Cl)c5F)c4n3)CC2)O1`, for which the “HCT116 pERK % Ymin” value in assay [1] was −10%. Also, the IC50 in assay [1] was below 500 nM; in assay [2] (setting [4]), 1 to 10 nM; in assay [3] (setting [5]), below 10 nM.
For the compound `CCN(Cc1ccncc1)C(=O)c1nn(-c2ccc3ncnc(Nc4c(F)ccc(NS(=O)(=O)c5cccc(F)c5C)c4F)c3n2)c2ccccc12`, in assay [1], the “HCT116 pERK Ymin %” value is on record as −2.4%. The IC50 in assay [1] (setting [6]) was below 500 nM; in assay [2] (setting [7]), below 1 nM; in assay [3] (setting [8]), 10 to 50 nM.
Taken in the same sequence, the figures for `COCCCN(C)C(=O)c1nn(-c2ccc3ncnc(Nc4c(F)ccc(NS(=O)(=O)c5cccc(F)c5C)c4F)c3n2)c2ccccc12` were −4.9%, below 500 nM, below 1 nM and below 10 nM.
Turning to `O=S(=O)(Nc1ccc(F)c(Nc2ncnc3ccc(-c4cnco4)nc23)c1F)c1cccc(Cl)c1Cl`, the “HCT116 pERK % Ymin” value in assay [1] was −6%. Moreover, the figures for the concentration for half-maximal inhibition (IC50) in assay [1], in assay [2] (setting [4]) and in assay [3] (setting [5]) were 1000 to 10000 nM, 1 to 10 nM and 10 to 50 nM, respectively.
Taken in the same sequence, the figures for `COCCOCCOc1cccc2c1ncn2-c1ccc2ncnc(Nc3c(F)ccc(NS(=O)(=O)c4cccc(Cl)c4Cl)c3F)c2n1` were −4%, 1000 to 10000 nM, 1 to 10 nM and below 10 nM.
For `COc1ccc(S(=O)(=O)Nc2ccc(F)c(Nc3ncnc4ccc(-n5ccnn5)nc34)c2F)c(C)c1`, in assay [1], the “HCT116 pERK Ymin %” value is given as 3%. In addition, the values for the IC50 in assay [1] (setting [6]), in assay [2] (setting [7]) and in assay [3] (setting [8]) were 1000 to 10000 nM, above 10 nM and above 50 nM, respectively.
`COC1CCCN(c2cccc3c2ncn3-c2ccc3ncnc(Nc4c(F)ccc(NS(=O)(=O)c5cccc(Cl)c5Cl)c4F)c3n2)C1` (single isomer, unassigned) [587]: in assay [1], the “HCT116 pERK % Ymin” value amounted to 0%. Further, the IC50 is below 500 nM in assay [1], 1 to 10 nM in assay [2] (setting [4]) and 10 to 50 nM in assay [3] (setting [5]).
On to `O=S(=O)(Nc1ccc(F)c(Nc2ncnc3ccc(-n4cnc5c(N6CCCC[C@H]6CO)cccc54)nc23)c1F)c1cccc(Cl)c1Cl`, for which the “HCT116 pERK % Ymin” value in assay [1] is given as −10%. Also, the IC50 in assay [1] is below 500 nM; in assay [2] (setting [4]), below 1 nM; in assay [3] (setting [5]), below 10 nM.

The IC50 is the concentration at which inhibition is half-maximal.
